Values quoted from earlier work, collected in patent US20050272649A1, “Conjoint administration of morphogens and ACE inhibitors in treatment of chronic renal failure” (priority 2002, published 2005).

Target: AT1 receptor (Homo sapiens, UniProt P30556)
Conditions: cited from earlier work

Structure (SMILES) | affinity for the AT1 receptor relative to affinity for the AT2 receptor
CCCCc1nc(Cl)c(CO)n1Cc1ccc(-c2ccccc2-c2nn[nH]n2)cc1 [Losartan] | about 1,000 times
CCCc1nc2c(C)cc(-c3nc4ccccc4n3C)cc2n1Cc1ccc(-c2ccccc2C(=O)O)cc1 [Telmisartan] | more than 3,000 times
CCCCC(=O)N(Cc1ccc(-c2ccccc2-c2nnn[nH]2)cc1)[C@H](C(=O)O)C(C)C [Valsartan] | about 20,000 times
